The values that follow are results of earlier work, collected in patent US20090142391A1, “Conjugated RNAi Therapeutics” (priority 2007, published 2009).

The conditions of this data set: in vivo.

What is called half-life is how long it takes for the measured level to halve. insulin: the half-life was 8 h.
